Laboratory results from patent publication US10927076B2, “HSP90B N-terminal isoform-selective inhibitors” (priority 2017, dated 2021).

Chains of the proteins cited; added tags and fusions are not shown.
UniProt P08238, whole entry: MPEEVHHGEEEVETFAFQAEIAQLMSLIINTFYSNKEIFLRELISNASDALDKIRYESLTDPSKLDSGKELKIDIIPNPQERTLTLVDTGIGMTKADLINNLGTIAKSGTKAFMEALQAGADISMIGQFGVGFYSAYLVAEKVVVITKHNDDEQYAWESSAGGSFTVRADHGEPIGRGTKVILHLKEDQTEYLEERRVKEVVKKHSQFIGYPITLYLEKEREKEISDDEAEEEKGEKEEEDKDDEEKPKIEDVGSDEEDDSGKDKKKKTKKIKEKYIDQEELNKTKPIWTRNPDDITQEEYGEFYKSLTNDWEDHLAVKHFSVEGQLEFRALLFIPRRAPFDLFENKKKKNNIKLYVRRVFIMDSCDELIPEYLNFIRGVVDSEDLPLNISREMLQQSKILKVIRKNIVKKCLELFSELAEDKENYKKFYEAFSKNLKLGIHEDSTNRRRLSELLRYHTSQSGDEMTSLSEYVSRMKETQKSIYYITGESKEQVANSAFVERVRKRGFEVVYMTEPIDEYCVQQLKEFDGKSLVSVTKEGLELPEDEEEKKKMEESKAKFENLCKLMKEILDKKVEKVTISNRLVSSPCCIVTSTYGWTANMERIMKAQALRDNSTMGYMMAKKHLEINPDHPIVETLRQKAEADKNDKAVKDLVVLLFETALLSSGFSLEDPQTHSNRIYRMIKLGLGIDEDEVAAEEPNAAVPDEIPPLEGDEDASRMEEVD

How the values were obtained:
Hsp90β = Hsp90β (Homo sapiens (Human), UniProt P08238); assay: Fluorescence polarization assay (FITC-GDA tracer displacement); type: binding
Hsp90α = Hsp90α (Homo sapiens (Human), UniProt P07900); assay: as above; type: binding

| Structure (SMILES) | Selectivity (Hsp90β) | selectivity over the other isoforms (Hsp90β) | Kd (Hsp90α) |
| --- | --- | --- | --- |
| CC(C)c1cc(C(=O)N2Cc3ccccc3C2)c(O)c(CO)c1O [KUNB14, (2,4-Dihydroxy-3-(hydroxymethyl)-5-isopropylphenyl)(isoindolin-2-yl)methanone] | ≥25 | > 25 fold | ≥ 100 µM |
| C=Cc1c(O)c(C(=O)N2Cc3ccccc3C2)cc(C(C)C)c1O [KUNB2, (2,4-Dihydroxy-5-isopropyl-3-vinylphenyl)(isoindolin-2-yl)methanone] | ≥19 |  | ≥ 100 µM |
| CC(C)c1cc(C(=O)N2Cc3ccccc3C2)c(O)c(C=O)c1O [KUNB1, 2,6-Dihydroxy-3-(isoindoline-2-carbonyl)-5-isopropylbenzaldehyde] |  |  | ≥ 100 µM |
